Measurements taken from publication PMC5667506 (2015).

Assays:
p40-A1ERh metallopeptide = target: T1, p40-A1ERh metallopeptide (also: metal complex: dirhodium at Glu1); test: ITC
T1 chain: E(dirhodium)PTYSPPPPP

p40-Y4ERh metallopeptide = target: T2, p40-Y4ERh metallopeptide (also: metal complex: dirhodium at Glu4); test: ITC
T2 chain: APTE(dirhodium)SPPPPP

- Kd (p40-A1ERh metallopeptide): 0.022 µM
- Kd (p40-Y4ERh metallopeptide): 7.19 µM
B1: Abl SH3 (protein)
chain: PSENDPNLFVALYDFVASGDNTLSITKGEKLRVLGYNHNGEWCEAQTKNGQGWVPSNYITPVNSLEK

No end group written: not given here.
